Measured values reported in patent US11371077B2, “High throughput cell-based screening for aptamers” (MeiraGTx UK II Limited, priority 2016, dated 2022).

System: xpt-G17 riboswitch
Assay: Luciferase reporter assay, xpt-G17 riboswitch, transfected HEK 293 cells
Assay type: cell-based
Settings: 100 µM

Avermectin B1
Fold Induction of luciferase activity: 4.0 fold
